## Ab-14 heavy chain CDR variants: yeast mating affinities

Binding partner: SARS-CoV-2 spike HR2 peptide, sequence PDVDLGDISGINAS.

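The parent was found by panning a naive human phage display library on the peptide. This is the validation round: designs drawn from the data on random variants, tested in the same kind of assay. Several design methods are mixed in this list. In AlphaSeq, yeast of one mating type display the scFv and yeast of the other type display the target. The frequency of each diploid, read from paired DNA barcodes, reflects how well the two displayed proteins bind. A regression on co-assayed BCL2-family reference pairs converts the normalised counts of each replicate to an apparent Kd. The assay was run in six technical replicates.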

Each scFv is VH, a (GGGGS)3 linker, VL, as in the parent Ab-14, and differs from it in the CDRs of the heavy chain only.
VH: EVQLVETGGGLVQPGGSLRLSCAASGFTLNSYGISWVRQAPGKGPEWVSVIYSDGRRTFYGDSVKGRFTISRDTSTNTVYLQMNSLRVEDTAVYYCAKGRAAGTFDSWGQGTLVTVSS
VL: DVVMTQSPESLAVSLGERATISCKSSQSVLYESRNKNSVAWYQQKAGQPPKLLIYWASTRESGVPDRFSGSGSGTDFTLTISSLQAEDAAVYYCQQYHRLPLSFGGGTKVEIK

Variants are written as CDR1, CDR2 and CDR3 of the heavy chain (limits as in the source). Parent: GFTLNSYGIS, VIYSDGRRTFYGDSVK, GRAAGTFDS. Values are log10 of the apparent Kd in nM; lower means stronger binding. Replicates are averaged; those with no signal do not enter the mean. A pair that was not seen in any replicate is written "no signal"; this usually means weak binding, but a binder can also be missed. Where one sequence has several entries in the source, the replicates are pooled. The parent sequence was in this pool as ten entries: three were never detected, three once, and four in most replicates, with averages from 0.34 to 2.37. In the paper, a design with two or fewer of six values counts as a poor binder. Nonspecific signal, from three strains lacking the peptide, appeared in 1% of pairings of all heavy chain designs, centred on 2.08 (5% of these signals below 0.84); values are not corrected for it. Values of this round are not directly comparable with the first-round values of the same sequences.

| # | CDR-H1 | CDR-H2 | CDR-H3 | mean, log10 nM | detected |
|---|---|---|---|---|---|
| 1 | GFDLDEYGIS | VIYADGRRTFYADSVK | GQNAGTFTS | -0.13 | 6 of 6 |
| 2 | KFDLNSYGIS | VIYSDGRRTFYIDSVK | GQAAGTFDS | 1.56 | 4 of 6 |
| 3 | GFDLNEYGIS | VIYADGRRTGYIDSVK | GENAGTFDV | -0.32 | 6 of 6 |
| 4 | GFDLNEYGIS | VIYADGRRTFYADNVK | GNVAGTFDL | -0.86 | 6 of 6 |
| 5 | GFDINEYGIS | VIYADGMRTAYVQQVK | GQHLGSVEV | 2.88 | 1 of 6 |
| 6 | GFTLNSYGIS | VDYSDGRRTFYGDSVK | GNAAGTKDS | no signal | 0 of 6 |
| 7 | GFALNSYGIS | VIYSDGRPTFYSDSVK | GRAGGTFDS | no signal | 0 of 6 |
| 8 | GFDLNEYGIS | VIYADGRRTSYIDSVK | GEAAGTFNV | -0.50 | 6 of 6 |
| 9 | GFDLDEYGIS | VIYADGSRTAYVDSVK | GNVAGTFDV | -0.17 | 6 of 6 |
| 10 | GFDLNEYGIS | VIYADGRRTFYTDSVK | GEEAGIFDV | no signal | 0 of 6 |
| 11 | GFTLNSYGIS | VIYSDGRRTFYQDSVK | GRAAGTFTQ | no signal | 0 of 6 |
| 12 | GFDLNEYGIS | VIYADGRRTAYIDSVK | GEIAGTFNV | -0.04 | 6 of 6 |
| 13 | GFTLNEYGIS | VIYSDGKRTFYSDSVK | GRAAGTFTS | 0.94 | 6 of 6 |
| 14 | GFSLNEYGIS | VIYSDGRRTFYGDSVK | GHAAGTFDN | no signal | 0 of 6 |
| 15 | GFTLNEYGIS | VIYSDGRRTFYSDSVK | GRAGGTFMS | no signal | 0 of 6 |
| 16 | GFDLNEYGIS | VIYADGMRTAYVDSVK | GNTAGTFDV | -0.28 | 6 of 6 |
| 17 | GFTLESYGIS | VIYSDGRRTFYADSVK | GQAAGTFDT | 0.45 | 6 of 6 |
| 18 | GFTLNEYGPS | VIYADGRRTFYGDSVK | GRPAATFDQ | no signal | 0 of 6 |
| 19 | GFQLDEYGIS | VIYADGQRTFYQDSVK | GEVAGTFDS | 0.01 | 6 of 6 |
| 20 | GFDLEEYGIS | VIYADGKRSQYTDAVK | GKFLDMMTY | no signal | 0 of 6 |
| 21 | GFWLNSYGIS | VIYSDGRRTFYGDSVK | GRNAGTFDS | no signal | 0 of 6 |
| 22 | GFDLNEYGIS | VIYADGRRTFYADSVK | GETAGTFDF | -0.62 | 6 of 6 |
| 23 | GFTLNQRGIS | VIYSDGRRTFYSDSVK | GRAAGFFTS | no signal | 0 of 6 |
| 24 | GFDLNEYGIS | VIYADGMRTYYADDVK | GTNAGTFDV | -0.69 | 6 of 6 |
| 25 | GFDLDEYGIS | VIYADGMRTFYADSVK | GEAAGTFDV | -0.14 | 6 of 6 |
| 26 | GFPLNSYGVS | VIYSDGRRTFYGDSVK | GRAAGTFDS | 2.36 | 3 of 6 |
| 27 | GFDLNEYGIS | VIYADGMRTAYVDSVK | GENAGTFDQ | 0.74 | 6 of 6 |
| 28 | GFTLNDYGIS | VIYSDGRRTQYQDSVK | GRAAGTFDS | 1.69 | 4 of 6 |
| 29 | GATLNDYGNS | VIYSDGRRTFYGDSVK | GRAASTFIS | 2.24 | 1 of 6 |
| 30 | GFDLNEYGIS | VIYADGQRTAYADSVK | GTVAGTFDQ | -0.05 | 6 of 6 |
| 31 | GFQIDEYGIS | VIYADGKRSMYADKVK | GVDADTMMF | no signal | 0 of 6 |
| 32 | GFDLNEYGIS | VIYADGQRTFYADSVK | GTAAGTFDQ | -0.42 | 6 of 6 |
| 33 | GFSLNSYGIS | VIYSDGRRTFYVDSVK | GSTAGTFDF | 1.05 | 6 of 6 |
| 34 | GFDINDYGIS | VIYADGLRTSVSTNFK | GIIAGTFTS | 0.05 | 6 of 6 |
| 35 | GFDLDEYGIS | VIYADGMRTAYADKVK | GENAGTFDI | 1.49 | 1 of 6 |
| 36 | GFSLNSYGIS | VIYSDGRRTFYDDDVK | GRTAGTFDS | 0.48 | 6 of 6 |
| 37 | GFDLNEYGIS | VIYADGRRTSYIDSVK | GNVAGTFDV | no signal | 0 of 6 |
| 38 | GFDLNSYGIS | VIYSDGRRTFYGDSVK | GRSAGTFDS | 0.87 | 10 of 12 |
| 39 | GFDLDEYGIS | VIYADGNRVFYADTVK | GLLGILYVV | no signal | 0 of 6 |
| 40 | GFQLNSYGIS | VIYSDGRRTMYGDSVK | GRAAGTFDS | 2.47 | 6 of 6 |
| 41 | GFDLNEYGIS | VIYADGRRTVYADSVK | GEAAGTFDS | -0.14 | 6 of 6 |
| 42 | GEDLMEYGIS | VIYADGKRFSYIDDVK | GNSTGFLDV | no signal | 0 of 6 |
| 43 | GFDLNEYGIS | VIYADGRRTFYVDSVK | GENAGTFDM | -0.33 | 6 of 6 |
| 44 | GFDLNSYGIS | VIYSDGRRSFYADSVK | GRTAGTFDS | 0.00 | 6 of 6 |
| 45 | GFTLNSYGIS | VIYSDGRRTFYGDSVK | GRAAGMFFS | no signal | 0 of 6 |
| 46 | GFTLNSYGIS | VIYSDGKRTFYGDSVK | GQAAGTFDV | no signal | 0 of 6 |
| 47 | GFDLNEYGIS | VIYADGKRTAYSDSVK | GQVAGTFDI | -0.55 | 6 of 6 |
| 48 | GYTLNEYGIS | VIYSDGRRTFYGDSVK | GRTAGTFDS | 1.69 | 4 of 6 |

Repeated from above, the 6 best binders with a signal in all replicates:

CDR-H1	CDR-H2	CDR-H3	mean, log10 nM	detected
GFDLNEYGIS	VIYADGRRTFYADNVK	GNVAGTFDL	-0.86	6 of 6
GFDLNEYGIS	VIYADGMRTYYADDVK	GTNAGTFDV	-0.69	6 of 6
GFDLNEYGIS	VIYADGRRTFYADSVK	GETAGTFDF	-0.62	6 of 6
GFDLNEYGIS	VIYADGKRTAYSDSVK	GQVAGTFDI	-0.55	6 of 6
GFDLNEYGIS	VIYADGRRTSYIDSVK	GEAAGTFNV	-0.50	6 of 6
GFDLNEYGIS	VIYADGQRTFYADSVK	GTAAGTFDQ	-0.42	6 of 6

Source: Li et al. 2023 (doi:10.1038/s41467-023-39022-2), MIT Lincoln Laboratory and A-Alpha Bio; data file from the FLAb repository.